These are literature values, as cited in US20090304663A1, “USE OF GSK-3 INHIBITORS FOR THE TREATMENT OF PROSTATE CANCER” (IMPERIAL INNOVATIONS LIMITED, priority 2004, published 2009).

Chains of the proteins cited; added tags and fusions are not shown.
UniProt P49841, whole entry, species assumed: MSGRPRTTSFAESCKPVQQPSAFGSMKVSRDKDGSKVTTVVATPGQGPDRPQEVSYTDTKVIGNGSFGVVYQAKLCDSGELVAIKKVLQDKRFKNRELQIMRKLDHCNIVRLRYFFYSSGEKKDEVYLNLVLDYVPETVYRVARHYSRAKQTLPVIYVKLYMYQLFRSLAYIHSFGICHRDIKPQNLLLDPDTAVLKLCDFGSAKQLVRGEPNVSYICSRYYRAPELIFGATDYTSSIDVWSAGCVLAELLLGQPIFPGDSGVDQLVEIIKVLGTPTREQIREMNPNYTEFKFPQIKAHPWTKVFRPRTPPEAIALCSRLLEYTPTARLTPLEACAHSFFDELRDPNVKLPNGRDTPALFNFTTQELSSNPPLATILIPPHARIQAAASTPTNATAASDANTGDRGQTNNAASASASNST

Molecules are shown by their SMILES.

This data set concerns the target GSK-3 β (Homo sapiens, UniProt P49841). The settings on record: cited from earlier work.

For orientation: Ki means the equilibrium dissociation constant of an inhibitor or competing ligand from its target. Turning to `O=C1NC(=O)C(c2cn(CCCO)c3ncccc23)=C1c1cnccn1` [3-(1-(3-Hydroxypropyl)-1H-pyrrolo[2,3-b]pyridin-3-yl]-4-pyrazin-2-yl-pyrrole-2,5-dione], the Ki is 25 nM.
